In patent US20120225837A1, “MEDICINAL AGENT FOR DISEASE ASSOCIATED WITH EPSTEIN-BARR VIRUS, AND METHOD FOR SCREENING OF THE MEDICINAL AGENT” (Kyoto University, priority 2007, published 2012):

Key:
[1] = test system: 143B/EB virus-TK cells; conditions: read-out: CC50 143B/EB Virus-TK; MTT assay, 5 days of culture
Description: (§1) At first, a primer was designed on the basis of the data base information of NCBI, followed by extracting DNA from B95a cells (J. Virol. 1990; 64(2): 700-5), and the TK gene of an EB virus was amplified by PCR method and cloned in the multicloning site of an expression plasmid vector pCI-neo (pCI-EB-TKneo). Similarly, human-TK gene was also amplified by PCR method and cloned (pCI-huTKneo). Whether the cloned gene fragment was a desired gene or not was judged by determining the base sequence.
(§2) Then, TK-defect human osteosarcoma cells (143B) was transfected by lipofection method (Proc. Natl. Acad. Sci. USA 1987 November; 84(21): 7413-7) with the plasmid vector capable of expressing EB virus-TK gene or the plasmid vector capable of expressing human-TK gene, namely, pCI-EB-TKneo or pCI-huTKneo, and cells having each plasmid introduced therein were selected by the use of neomycin.
(§3) The drug sensitivity of 143B/EB virus-TK, 143B/hu-TK, 143B TK(−) cells and EB virus persistent infection cells was determined on the basis of the cytotoxicity of each drug. […] After 5 days of culture, the number of surviving cells was determined by MTT [3-(4,5-dimethylthiazol-2-yl)-2,5-diphenyltetrazolium bromide] assay. […]

[2] = test system: 143B/hu-TK cells; assay: MTT cytotoxicity assay, cell having human-TK gene introduced; type: cell-based
Description: as §1, §2, §3

**Q.** How did the CC50 [1] turn out when “β-D-2-methylene-4-thio-β-D-erythropentofuranosyl)thymine [4′-S-DMDT]” was run?
**A.** The CC50 was greater than 100 µM.

**Q.** And the CC50 [2]?
**A.** The CC50 was greater than 100 µM.
